Laboratory results from patent US12060351B2, “Thiadiazole IRAK4 inhibitors” (Gilead Sciences, Inc., priority 2018, dated 2024).

By UniProt entry, the sequences of proteins in these tests, tags left out.
UniProt Q9NWZ3, whole entry: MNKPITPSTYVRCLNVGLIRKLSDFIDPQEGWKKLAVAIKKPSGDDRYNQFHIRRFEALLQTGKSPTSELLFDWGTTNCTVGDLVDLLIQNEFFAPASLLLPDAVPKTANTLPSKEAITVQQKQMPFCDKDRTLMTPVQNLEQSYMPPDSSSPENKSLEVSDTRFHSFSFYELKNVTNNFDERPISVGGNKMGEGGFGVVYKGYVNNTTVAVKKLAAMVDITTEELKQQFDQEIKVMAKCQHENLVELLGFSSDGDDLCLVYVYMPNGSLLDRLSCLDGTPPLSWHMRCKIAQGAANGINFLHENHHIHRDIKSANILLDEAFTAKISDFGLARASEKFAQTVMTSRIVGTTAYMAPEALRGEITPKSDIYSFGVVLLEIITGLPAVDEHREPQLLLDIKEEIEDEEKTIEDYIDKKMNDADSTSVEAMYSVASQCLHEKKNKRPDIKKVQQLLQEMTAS

Tests used:
[1] = test system: TNFα; assay: IRAK4 Monocyte TNFα Cell Based Assay (LPS-stimulated, TR-FRET TNFα detection); settings: read-out: EC50 MONO TNF HTRF, human monocytes, Table 2 second part (compounds 33-343)
[2] = biological target: IRAK4 enzyme (Homo sapiens, UniProt Q9NWZ3); assay: IRAK4 Biochemical Assay (TR-FRET, STK1 KinEASE); settings: read-out: IC50 IRAK4-HTBS, 500 μM ATP, Table 2 second part (compounds 33-343)

SMILES | EC50 [1] [nM] | IC50 [2] [nM]
CC(=O)NC1CCC(F)(c2nnc(-c3cnc(-c4ccc5cc(C#N)cnn45)cc3NC(C)C)s2)CC1 (single isomer, unassigned) [194 Isomer 1] | 50.8 | 0.61
CC(=O)NC1CCC(F)(c2nnc(-c3cnc(-c4ccc5cc(C#N)cnn45)cc3NC(C)C)s2)CC1 (single isomer, unassigned) [194 Isomer 2] | 40.6 | 0.57
